Source: patent US20060205772A1, “Amide derivatives and their use as inhibitors of 11-beta-hydroxysteroid dehydrogenase type I” (priority 2003, published 2006)

The chains behind the UniProt entries cited, without tags or fusion partners.
UniProt P16232, whole entry: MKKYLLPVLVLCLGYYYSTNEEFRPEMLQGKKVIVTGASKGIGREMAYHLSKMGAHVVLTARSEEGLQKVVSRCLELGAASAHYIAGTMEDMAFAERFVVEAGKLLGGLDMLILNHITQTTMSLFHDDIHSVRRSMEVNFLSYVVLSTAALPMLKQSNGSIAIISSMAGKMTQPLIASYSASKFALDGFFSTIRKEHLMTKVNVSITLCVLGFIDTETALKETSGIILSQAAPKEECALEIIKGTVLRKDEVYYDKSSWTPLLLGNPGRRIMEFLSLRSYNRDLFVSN
UniProt P80365, whole entry: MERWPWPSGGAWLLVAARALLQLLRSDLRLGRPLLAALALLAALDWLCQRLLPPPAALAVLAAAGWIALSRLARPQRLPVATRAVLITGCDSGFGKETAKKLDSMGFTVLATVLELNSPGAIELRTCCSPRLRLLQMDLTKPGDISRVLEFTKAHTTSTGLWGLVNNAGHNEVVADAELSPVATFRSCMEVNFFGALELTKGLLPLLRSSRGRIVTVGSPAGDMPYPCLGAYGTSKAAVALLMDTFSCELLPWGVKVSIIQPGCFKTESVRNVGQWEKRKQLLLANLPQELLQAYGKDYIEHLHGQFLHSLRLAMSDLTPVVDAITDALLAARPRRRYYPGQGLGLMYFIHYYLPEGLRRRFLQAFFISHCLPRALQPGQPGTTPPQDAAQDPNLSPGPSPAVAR
UniProt P28845, whole entry: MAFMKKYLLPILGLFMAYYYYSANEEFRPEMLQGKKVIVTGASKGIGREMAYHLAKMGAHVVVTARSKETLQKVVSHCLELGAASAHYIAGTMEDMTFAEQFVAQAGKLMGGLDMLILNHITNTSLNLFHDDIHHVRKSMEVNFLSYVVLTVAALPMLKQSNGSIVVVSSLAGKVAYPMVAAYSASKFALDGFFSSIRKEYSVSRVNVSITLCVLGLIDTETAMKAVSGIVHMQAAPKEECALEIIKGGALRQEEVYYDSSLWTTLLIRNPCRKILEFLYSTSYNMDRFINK

Assays:
[1] = molecular target: cellular 11β-HSD1 (Rattus norvegicus, UniProt P16232); assay: inhibition of cellular 11β-HSD1 activity in primary rat hepatocytes; conditions: 2 h incubation
Description: The inhibition of cellular 11β-HSD1 activity in primary rat hepatocytes is determined as follows:
Male Sprague-Dawley rats weighing 180-200 g are anesthetized with sodium pentobarbital (65 mg/kg). The liver is perfused in situ with calcium-free Earl's Balanced Salt Solution (EBSS) followed by EBSS containing 100-150 U/mL of collagenase, 1.8 mM CaCl2 and 10 mM HEPES, pH 7.4. The perfused liver is removed and aseptically placed in warm William's Medium E containing 10% BCS. After decapsulation, the organ is transferred to fresh medium and gently shaken to facilitate tissue dissociation and cell release. Hepatocytes are separated from nonparenchymal and dead cells by repeated low speed centrifugation. Cell viability is determined by trypan blue exclusion. […]
Enzyme activity is measured in the medium of primary cultures of rat hepatocytes 48 h after plating the cells. […] The dissolved residues are quantitatively transferred to thin layer plates and developed in chloroform-methanol (90:10). The TLC plates are scanned on a Bioscan imaging detector and the fractional conversion of 11-dehydrocorticosterone to corticosterone is calculated. […] Enzyme activity is expressed as pmoles of product formed per mg protein per hour.

[2] = molecular target: human 11β-HSD2 (Homo sapiens, UniProt P80365); assay: in vitro inhibition of human 11β-HSD2 (SW-620 cell lysates, [3H]cortisol to [3H]cortisone)
Description: The in vitro inhibition of human 11β-HSD2 is determined as follows:
The SW-620 human colon carcinoma cell line is obtained from the American Type Culture Collection (ATCC). Cells are plated at a density of 8-10×10^4 cells/cm^2 in DMEM/F12 containing 5% BCS, 100 U/mL penicillin, 100 μg/mL streptomycin and […] amphotericin B. Cultures are grown to 80-90% confluence in a humidified, atmosphere of 5% CO2 at 37° C. The medium is changed to serum-free, phenol red-free DMEM/F12 at 24 h before harvesting the cells.
After 24 h in serum-free medium, cultured SW-620 cells are rinsed and scraped in Kreb's-Ringer buffer, pH 7.4, containing 1 mM EDTA, 2 μg/mL aprotinin, 10 μM leupeptin and 1 μM pepstatin. […]
Dehydrogenase activity is quantified by measuring the conversion of [^3H]cortisol to [^3H]cortisone using lysates of SW-620 cells as the enzyme source. […] The dissolved residues are quantitatively transferred to thin layer plates and developed in chloroform-methanol (90:10). […] The TLC plates are scanned on a Bioscan radioimaging detector (Bioscan, Washington, D.C.), and the fractional conversion of cortisol to cortisone is calculated. Enzyme activity is expressed as pmoles of product formed per mg protein per hour. […]

[3] = molecular target: human recombinant 11β-HSD1 (Homo sapiens, UniProt P28845); assay: in vitro inhibition of human recombinant 11β-HSD1 (Pichia pastoris microsomes, [3H]cortisone to [3H]cortisol); conditions: read-out: 11β-HSD1 IC50; recombinant human 11β-HSD1 microsomes, 500 nM cortisone mixture, NADPH, 90 min at 37° C.
Description: The in vitro inhibition of human recombinant 11β-HSD1 is determined as follows:
Recombinant human 11β-HSD1 is expressed in yeast Pichia pastoris. Cultures are grown at 30° C. for 3 days in the presence of methanol to induce enzyme expression. The microsomal fraction overexpressing 11β-HSD1 is prepared from the cell homogenate and used as the enzyme source for primary screening. A test compound at the desired concentration is preincubated for 10 min at RT with 3 μg of the microsomal protein in 50 mM sodium phosphate, pH 7.5, in a total volume of 80 μL. The enzyme reaction is initiated by adding 20 μL of a mixture containing 5 mM NADPH, 500 nM cortisone, and 80,000 dpm of [^3H]cortisone in the same buffer and is terminated by ethyl acetate after incubation for 90 min at 37° C. The production of [^3H]cortisol is quantitated upon separation from [^3H]cortisone by a C18 column on HPLC equipped with a radioactivity detector. Glycerrhetinic acid, a known inhibitor of 11β-HSD1, is used as a standard.

[4] = tested on: corticosterone production in adrenalectomized (ADX) mice; assay: inhibition of corticosterone production in adrenalectomized (ADX) mice; conditions: ADX CD1 mice, orally 25 mg/kg each at 2 and 4 h before sacrifice; liver corticosterone
Description: Inhibition of corticosterone production in adrenalectomized (ADX) mice is determined as follows:
Bilateral adrenalectomy is performed in male mice of the CD1 strain (6 to 8 weeks of age, 25-30 g body weight) through a lumbar laparotomy. After 10 days the animals are fasted for 24 h. Compounds are administered orally at 25 mg/kg each at 2 and 4 h before sacrifice. A second group of animals receives carbenoxolone at the same dose, and a third group receives the vehicle (cornstarch). Homogenized liver samples are used to measure corticosterone concentration which is determined by radioimmunoassay and is expressed as pg of corticosterone per mg of liver protein.

With `COc1cc(NC(=O)c2ccccc2)ccc1C(=O)N1CC[C@H]2CCCC[C@H]2C1` (relative stereo) the “cellular 11β-HSD1 % inhibition @ 1 μM” value [1] was 67%, the “11β-HSD2 % inhibition @ 10 μM” value [2] was 30% and the IC50 [3] was 560 nM. For the same compound, the “ADX mice % change in corticosterone” value [4] was −73%.
